The Ki is a dissociation constant, usually derived from enzyme kinetics or from competition with a known ligand.

For the assay, the target named is Prothrombin (Homo sapiens, UniProt P00734). Put plainly: Inhibitory activity against thrombin.

For `N=C(N)NOCCCOc1cc(Cl)cc(C(=O)N2CCOCC2)c1`, the Ki was determined as 7.62 µM.

The values are drawn from ChEMBL document CHEMBL1146801, “Oxyguanidines. Part 2: Discovery of a novel orally active thrombin inhibitor through structure-based drug design and parallel synthesis” (Bioorg Med Chem Lett, 2004).
